The entries are a selection whose mix differs from that of the whole data set. Active and inactive are the calls of the source.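 How the source made its calls: active means RAM network inhibition above 8.4% in each of two replicates, 3 SD over the compound average; inconclusive means above 8.4% inhibition in only one replicate; inactive means 8.4% inhibition or less in each replicate.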
assay: RAM signaling pathway blockade in yeast – S. cerevisiae, Pdr1DBD-CYC8 efflux-inhibited sensitized strain, primary screen (AID 1298);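 further: 0% = DMSO untreated cells without growth and 100% = 10 µM 1-NA-PP1 full growth; higher means more yeast growth rescued from 5-FOA killing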; settings: S. cerevisiae cbk1-as DSE1-URA3 strain, 5-FOA growth OD615, 2 d; at 50 µM; active compounds read high

Question: Which RAM network inhibition does the source give for `CP(=O)(Nc1ccc2c(c1)OCCO2)Oc1ccccc1` (stereo not given) here?
Answer: inactive: 1.35%

Question: With `CP(=O)(Oc1ccccc1)N1CCOC1=O` (stereo not given) as the molecule, how does the RAM network inhibition read?
Answer: inactive: -0.12%

Question: With `CP(=O)(NC(=O)Nc1ccccc1)Oc1ccccc1` (stereo not given) as the molecule, how does the RAM network inhibition read?
Answer: inactive: -0.21%

Question: With `Cc1ccc(NP(C)(=O)Oc2ccccc2)c(C)c1` (stereo not given) as the molecule, how does the RAM network inhibition read?
Answer: inactive: 0.95%

Question: With `Cc1ccc(C)c(NP(C)(=O)Oc2ccccc2)c1` (stereo not given) as the molecule, how does the RAM network inhibition read?
Answer: inactive: 1.97%
